In patent US10562843B2 (dated 2020):

Columns and labels:
human β2-AR [1] = target: T1, human β2-AR (Homo sapiens, UniProt P07550)
human β2-AR [2] = target: T1, human β2-AR; assay: biochemical

Row | Structure (SMILES) | Ki β1/Ki β2 (human β2-AR [1]) | Kd (human β2-AR [2]) [µM]
1 | C[C@H](Cc1ccc(N)cc1)NC[C@@H](O)c1cc(O)cc(O)c1.O=C(O)/C=C/C(=O)O (racemic) [(S,R)-3, (S,R)-(+)-5-{2-[2-(4-Aminophenyl)-1-methylethylamino]-1-hydroxyethyl}-1,3-benzenediol Fumarate] | 3 | 
2 | CCCCC[C@@H](C)NC[C@@H](O)c1cc(O)cc(O)c1 (racemic) [(S,R)-6, (S,R)-(+)-5-[1-Hydroxy-2-(1-methylhexylamino)ethyl]-1,3-benzenediol Fumarate] |  | ≥ 100
3 | C[C@H](Cc1ccc(N)cc1)NC[C@H](O)c1cc(O)cc(O)c1.O=C(O)/C=C/C(=O)O [(R,R)-3, (R,R)-(−)-5-{2-[2-(4-Aminophenyl)-1-methylethylamino]-1-hydroxyethyl}-1,3-benzenediol Fumarate] | 9 | 
4 | C[C@@H](Cc1ccc(N)cc1)NC[C@H](O)c1cc(O)cc(O)c1.O=C(O)/C=C/C(=O)O [(R,S)-3, (R,S)-(−)-5-{2-[2-(4-Aminophenyl)-1-methylethylamino]-1-hydroxyethyl}-1,3-benzenediol Fumarate] | 4 | 

Structures can show the parent of a compound that is named as a salt.
